Among the data in patent US8802674B2, “Aminopyrimidine derivatives as LRRK2 modulators” (Genentech, Inc., priority 2011, dated 2014) are Ki values, retold here.

The chains behind the UniProt entries cited, without tags or fusion partners. Residues count along the entry.
UniProt Q5S007, 970-2527 G2019S limits assumed: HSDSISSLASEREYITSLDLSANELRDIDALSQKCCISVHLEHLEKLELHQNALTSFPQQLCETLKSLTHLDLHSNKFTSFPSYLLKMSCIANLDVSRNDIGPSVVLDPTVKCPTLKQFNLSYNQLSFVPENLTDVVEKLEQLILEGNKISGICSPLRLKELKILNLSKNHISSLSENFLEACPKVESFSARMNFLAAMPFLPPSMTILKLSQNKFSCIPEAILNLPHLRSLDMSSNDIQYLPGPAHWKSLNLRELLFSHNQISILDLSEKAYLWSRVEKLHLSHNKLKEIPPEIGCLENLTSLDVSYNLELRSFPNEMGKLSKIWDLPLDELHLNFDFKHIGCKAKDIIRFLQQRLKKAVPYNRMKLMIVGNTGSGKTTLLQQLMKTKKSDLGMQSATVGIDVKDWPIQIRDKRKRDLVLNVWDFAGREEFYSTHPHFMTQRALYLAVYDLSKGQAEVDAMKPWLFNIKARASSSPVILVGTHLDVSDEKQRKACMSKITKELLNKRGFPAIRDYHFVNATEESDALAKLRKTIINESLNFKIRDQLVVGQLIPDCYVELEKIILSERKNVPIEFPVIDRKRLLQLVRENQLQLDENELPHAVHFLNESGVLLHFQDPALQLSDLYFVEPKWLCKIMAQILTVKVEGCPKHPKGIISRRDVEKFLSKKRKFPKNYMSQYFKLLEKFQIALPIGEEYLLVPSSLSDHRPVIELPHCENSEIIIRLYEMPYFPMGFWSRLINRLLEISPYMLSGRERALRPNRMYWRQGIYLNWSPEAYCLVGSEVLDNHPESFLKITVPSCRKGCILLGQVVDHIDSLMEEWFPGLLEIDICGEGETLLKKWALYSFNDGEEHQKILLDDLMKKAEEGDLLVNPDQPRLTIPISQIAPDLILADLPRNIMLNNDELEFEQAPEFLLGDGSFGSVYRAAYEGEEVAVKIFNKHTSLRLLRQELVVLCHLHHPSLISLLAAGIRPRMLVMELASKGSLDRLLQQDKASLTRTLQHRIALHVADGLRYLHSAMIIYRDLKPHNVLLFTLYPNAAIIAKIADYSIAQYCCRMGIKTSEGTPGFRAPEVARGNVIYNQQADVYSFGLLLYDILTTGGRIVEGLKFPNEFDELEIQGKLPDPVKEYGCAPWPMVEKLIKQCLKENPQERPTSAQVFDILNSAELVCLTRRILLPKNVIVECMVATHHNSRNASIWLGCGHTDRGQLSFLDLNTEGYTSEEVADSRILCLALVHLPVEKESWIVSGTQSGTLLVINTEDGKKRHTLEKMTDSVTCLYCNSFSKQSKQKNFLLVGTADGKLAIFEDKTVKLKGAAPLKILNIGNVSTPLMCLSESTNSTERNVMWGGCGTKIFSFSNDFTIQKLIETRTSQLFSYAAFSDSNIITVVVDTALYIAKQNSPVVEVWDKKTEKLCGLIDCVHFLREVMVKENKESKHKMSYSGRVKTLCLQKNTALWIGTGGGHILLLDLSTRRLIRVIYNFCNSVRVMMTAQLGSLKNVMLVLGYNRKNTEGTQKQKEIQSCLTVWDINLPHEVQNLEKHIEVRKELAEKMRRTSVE

By Ki is commonly meant a dissociation constant, usually derived from enzyme kinetics or from competition with a known ligand. Lower therefore signals higher affinity.

This assay has as its target LRRK2 (Homo sapiens (Human), UniProt Q5S007, G2019S). Briefly: In Vitro LRRK2 LabChip Assay. In kind it is biochemical. As to conditions: Table 4. How it is done: In Vitro LRRK2 LabChip Assay
This assay was used to determine a compound's potency in inhibiting activity of LRRK2 by determining, Kiapp, IC50, or percent inhibition values. In a polypropylene plate, LRRK2, fluorescently-labeled peptide substrate, ATP and test compound were incubated together. Using a LabChip 3000 (Caliper Life Sciences), after the reaction the substrate was separated by capillary electrophoresis into two populations: phosphorylated and unphosphorylated. The relative amounts of each were quantitated by fluorescence intensity. LRRK2 Ki was determined according to the equation: Y=V0*(1−((x+Ki*(1+S/Km)+Et)/(2*Et)−(((x+Ki*(1+S/Km)+Et)^2−(4*Et*x))^0.5)/(2*Et))). Ki values in Table 4 and elsewhere herein are shown in μM.
Assay conditions and materials used were as follows:
Compound Plate Preparation:
For serial dilutions, 34.6 μl DMSO was added to columns 3-24. […]
The plate was incubated for 2 hours in the dark. […] Results were read on the LabChip 3000. […]

Molecule `CCN1CCN(C(=O)c2ccc(Nc3ncc(Br)c(OC)n3)c(OC)c2)CC1` [Example 83, [4-(5-Bromo-4-methoxy-pyrimidin-2-ylamino)-3-methoxy-phenyl]-(4-ethyl-piperazin-1-yl)-methanone] showed a Ki of 2.5 nM.
